The record followed here is patent publication US20250136594A1 (Tango Therapeutics, Inc., priority 2022, published 2025).

The test concerns SDMA in HAP1 MTAP-deleted (MTAP-null) cell line (PRMT5 inhibition). The test is described as follows: SDMA in-cell western assay, HAP1 MTAP-deleted cell line. The conditions noted are these: ratio of SDMA IC50 in HAP1 MTAP-intact to HAP1 MTAP-deleted cell line.
For the molecule `Nc1ncc(NC(=O)C(=O)N(Cc2ccccc2)Cc2ccccc2)c2[nH]ncc12` [Compound 21, N-(4-amino-1H-pyrazolo[4,3-c]pyridin-7-yl)-N′,N′-dibenzyl-oxamide], the “Hap1 MTAP intact/deleted ratio” value is reported as “A (IC50 ratio greater than or equal to 30 fold)”. As for `C[C@H](c1ccc(F)cc1)N(C)C(=O)C(=O)Nc1cnc(N)c2cn[nH]c12` [Compound 144, (R)—N^1-(4-amino-1H-pyrazolo[4,3-c]pyridin-7-yl)-N^2-(1-(4-fluorophenyl)ethyl)-N^2-methyloxalamide], the “Hap1 MTAP intact/deleted ratio” value is recorded as “A (IC50 ratio greater than or equal to 30 fold)”. `C[C@H](c1ccccc1F)N(C)C(=O)C(=O)Nc1cnc(N)c2cn[nH]c12` [Compound 162, (R)—N^1-(4-amino-1H-pyrazolo[4,3-c]pyridin-7-yl)-N^2-(1-(2-fluorophenyl)ethyl)-N^2-methyloxalamide]: the “Hap1 MTAP intact/deleted ratio” value was “A (IC50 ratio greater than or equal to 30 fold)”. In the case of `C[C@@H](c1ccc(C(F)(F)F)cc1C(F)(F)F)N(C)C(=O)C(=O)Nc1cnc(N)c2cn[nH]c12` [Compound 169, N-(4-Amino-2H-pyrazolo[4,3-c]pyridin-7-yl)-N′-methyl-N′—[(1S)-1-[2,4-bis (trifluoromethyl)phenyl]ethyl]oxamide] it was “A (IC50 ratio greater than or equal to 30 fold)”.

Regarding `C[C@H](c1ccc(C(F)(F)F)cc1C(F)(F)F)N(C)C(=O)C(=O)Nc1cnc(N)c2cn[nH]c12` [Compound 193, N-(4-Amino-2H-pyrazolo[4,3-c]pyridin-7-yl)-N′-methyl-N′—[(1R)-1-[2,4-bis (trifluoromethyl)phenyl]ethyl]oxamide], the “Hap1 MTAP intact/deleted ratio” value was “A (IC50 ratio greater than or equal to 30 fold)”.
